# Measured values taken from US11903936B2, “Anti-malarial agents” (THE BOARD OF REGENTS OF THE UNIVERSITY OF TEXAS SYSTEM, priority 2019, dated 2024).
# Tested on: parasitized human erythrocytes
# Settings: mouse, in vivo
structure (smiles),measurement,value
"Cc1c(C2(c3ccc(C(F)(F)F)c(C#N)c3)CC2)c[nH]c1C(=O)NC(C)c1nc[nH]n1 (single isomer, unassigned) [Compound 26, 4-{1-[3-cyano-4-(trifluoromethyl)phenyl]cyclopropyl}-3-methyl-N-[1-(1H-1,2,4-triazol-3-yl)ethyl]-1H-pyrrole-2-carboxamide]",CED90,<4 µM/day
same,DOR (day of recrudescence),22
same,blood level of compound required for efficacy,lower
